The text below walks through data of publication PMC7948648 (The Journal of Biological Chemistry, 2021).

SMILES strings stand for the structures.

The experiment concerns the target T1, ART domain of TNKS1 (residues 1104–1314) (Homo sapiens, UniProt O95271).
T1 construct: biotinylated TNKS1 protein (amino acids: 1104–1314); hexahistidine (N, cleaved yes); made in house; host or cells: Escherichia coli BL21(DE3)
T1 sequence (O95271 1104-1314): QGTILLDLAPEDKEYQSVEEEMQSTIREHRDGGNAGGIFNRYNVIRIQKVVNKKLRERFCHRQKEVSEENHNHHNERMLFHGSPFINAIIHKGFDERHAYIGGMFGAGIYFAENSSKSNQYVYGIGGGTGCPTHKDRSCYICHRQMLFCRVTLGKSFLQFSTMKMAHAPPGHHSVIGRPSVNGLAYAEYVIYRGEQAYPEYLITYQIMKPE
Description: SPR binding kinetics to TNKS1 ART domain. The note with it: 150 mM NaCl, pH 7.4, 25 °C, read-out: TNKS1 Kin. KD. On the technique in general: Surface plasmon resonance follows binding to a sensor surface in real time, without labels.

`NC(=O)c1cccc2cn(-c3ccc([C@@H]4CCCNC4)cc3)nc12` [Niraparib, niraparib]: the Kd came out at 34.8 µM.

The Kd is the free concentration of one partner at which half of the binding sites on the other are occupied at equilibrium, for simple one-to-one binding.
